Measurements published in patent publication US20170058043A1.

Columns and labels:
TAG-72 purified target [1] = experiment: ELISA, coating Mucin(HCl), replicate 1
TAG-72 purified target [2] = experiment: ELISA, coating Mucin(H2O), replicate 2
TAG-72 purified target [3] = experiment: ELISA, coating Mucin(HCl), replicate 2
[4] = biological target: TAG-72 on cancer cell lines; experiment: flow cytometry, percent of cells bound; legend: MCF-7 cells, 40 µg antibody (text paragraph 140: 400 µg, in the context of OVACAR-3)
[5] = biological target: TAG-72 on cancer cell lines; experiment: flow cytometry, percent of cells bound; legend: MCF-7 cells, 20 µg antibody (text paragraph 140: 200 µg, in the context of OVACAR-3)
TAG-72 purified target [6] = experiment: ELISA, coating Mucin(H2O), replicate 1

CC49_BITE_2: CC49_SCFV-2-LINKER-OKT3_SCFV-H6 (bispecific antibody)
OD490 (TAG-72 purified target [1]): 0.364 OD490 | OD490 (TAG-72 purified target [2]): 0.31 OD490 | OD490 (TAG-72 purified target [3]): 0.366 OD490 | % binding [4]: 18.5% | % binding [5]: 9.89% | OD490 (TAG-72 purified target [6]): 0.308 OD490
